Test results taken from patent publication US11845808B2, “Peptide inhibitors of interleukin-23 receptor and their use to treat inflammatory diseases” (Janssen Biotech, Inc., priority 2020, dated 2023).

How the values were obtained:
[1] = Stability in cynomolgus monkey fecal homogenate; type: in vitro ADME; conditions: 20% cynomolgus monkey fecal homogenate, 37° C., 20 μM
[2] = Stability in human fecal homogenate; type: in vitro ADME; conditions: 20% human fecal homogenate, 37° C., 20 μM
[3] = Stability in simulated gastric fluid (SGF); type: in vitro ADME; conditions: pepsin, pH=2, 37° C., 20 μM peptide
Procedure: Studies were carried out in simulated intestinal fluid (SIF) and simulated gastric fluid (SGF) to evaluate gastric stability of the peptide inhibitors of the present invention. In addition, studies were carried out to assess redox stability of the peptide inhibitors of the present invention.
SGF was prepared by adding 20 mg NaCl, 32 mg porcine pepsin (MP Biochemicals, catalog 02102599), and 700 HCl to 10 ml water (final pH=2). Aliquots of SGF (0.5 ml each) were pre-warmed at 37° C. To start the reaction, 1 μl of peptide stock solution (10 mM in DMSO) was added to 0.5 ml SGF and thoroughly mixed such that the final peptide concentration was 20 μM. The reactions were incubated at 37° C. with gentle shaking. At each time point (0, 15, 30, 60 min) 50 μl aliquots were removed and added to 200 ul acetonitrile containing 0.1% formic acid to quench the reaction. Samples are stored at 4° C. until the end of the experiment and centrifuged at 10,000 rpm for 5 minutes. Aliquots of the supernatant were removed, diluted 1:1 into distilled water containing internal standard, and analyzed by LCMS/MS. Percent remaining at each timepoint was calculated based on the peak area response ratio of test to compound to internal standard. Time 0 was set to 100%, and all later timepoints were calculated relative to time 0. Half-lives were calculated by fitting to a first-order exponential decay equation using GraphPad.

[4] = target: T1, IL-23R (Homo sapiens, UniProt Q5VWK5); assay: DB cells IL23R pSTAT3 cell assay (pStat3 HTRF); type: cell-based; conditions: IL-23R-expressing DB cells, IL-23 0.5 nM, 30 minutes
T1 construct: examines the levels of pSTAT3 in IL-23R-expressing DB cells when stimulated with IL-23; host or cells: DB cells
T1 sequence (Q5VWK5 24-629): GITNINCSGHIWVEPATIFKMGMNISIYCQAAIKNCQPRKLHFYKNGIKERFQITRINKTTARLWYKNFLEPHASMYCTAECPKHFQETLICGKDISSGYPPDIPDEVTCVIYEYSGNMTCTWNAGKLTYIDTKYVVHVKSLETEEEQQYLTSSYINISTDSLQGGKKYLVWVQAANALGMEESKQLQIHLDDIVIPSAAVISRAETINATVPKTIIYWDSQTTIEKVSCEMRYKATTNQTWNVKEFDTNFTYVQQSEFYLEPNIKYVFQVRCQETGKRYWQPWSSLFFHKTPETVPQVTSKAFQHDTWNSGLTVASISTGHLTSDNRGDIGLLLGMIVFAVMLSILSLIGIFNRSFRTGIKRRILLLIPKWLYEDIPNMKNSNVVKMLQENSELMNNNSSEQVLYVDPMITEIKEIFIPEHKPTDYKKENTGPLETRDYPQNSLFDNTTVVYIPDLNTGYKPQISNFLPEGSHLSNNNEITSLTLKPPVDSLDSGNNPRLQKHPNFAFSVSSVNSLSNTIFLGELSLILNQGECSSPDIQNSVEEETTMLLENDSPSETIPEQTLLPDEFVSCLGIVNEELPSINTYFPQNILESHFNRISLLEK

[5] = Stability in simulated intestinal fluid (SIF); type: in vitro ADME; conditions: 100 fold dilution of standard SIF concentration, 37° C., 20 μM
Procedure, shortened: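 Peptides at 20 μM final were incubated at 37 °C in SIF (potassium phosphate with pancreatin, pH 6.8), and reactions were quenched with acetonitrile/1% formic acid at time points from 0 min to 24 h. Percent remaining relative to time 0 was determined by LC-MS/MS against an internal standard, and half-life came from a first-order decay fit.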

[6] = Stability in rat plasma; type: in vitro ADME; conditions: SD rat plasma, 37° C., 20 μM
[7] = target: IL-23 stimulated phosphorylated STAT3 in PBMCs (Homo sapiens, UniProt Q5VWK5); assay: PBMC pSTAT3 assay; type: cell-based; conditions: PBMCs from healthy donors, IL-23 5 ng/mL, 30 minutes
[8] = target: IL-23 induced IFNγ in natural killer (NK) cells (Homo sapiens, UniProt Q5VWK5); assay: NK cell based assay (IL-23/IL-18 induced IFNγ); conditions: IL-23 at EC50 to EC75 and IL-18 10 ng/mL, IFNγ in supernatant after 20 to 24 hours
Text: Example 3: NK Cell Based Assay

Substance	t½: Monkey Feces anaerobic [1]	t½: Human Feces anaerobic [2]	SGF t½ [3]	IC50 [4]	SIF t½ [5]	t½: Rat Plasma EDTA [6]	IC50 [7]	IC50 [8]
Ac-[Pen]-E-T-[W(7-Ph)]-[Lys(Ac)]-[Pen]-Phe[4-(2-aminoethoxy)]-[2-Nal]-[THP]-[Lys(Ac)]-N-[3Pal]-[Sarc]-NH2 [Peptide 139]	>24.0 h	>24.0 h	>24.0 h	0.077 nM	16.4 h	>24.0 h	–	–
Ac-[Pen]-N-T-[W(7-(3-carboxamidophenyl))]-[Lys(Ac)]-[Pen]-Phe[4-(2-aminoethoxy)]-[2-Nal]-[THP]-E-N-[3Pal]-[Sarc]-NH2 [Peptide 142]	>24.0 h	>24.0 h	>24.0 h	0.09 nM	>24.0 h	>24.0 h	–	–
Ac-[Pen]-N-T-[W(7-Me)]-[Lys(Ac)]-[Pen]-Phe[4-(2-aminoethoxy)]-[2-Nal]-[NMe(Lys)]-[Lys(Ac)]-N-[His_3Me]-NH2 [Peptide 145]	19.3 h	>24.0 h	>24.0 h	0.029 nM	>24.0 h	–	0.12 nM	–
Ac-[Pen]-N-T-[W(7-Ph)]-[Lys(Ac)]-[Pen]-Phe[4-(2-aminoethoxy)]-[2-Nal]-[THP]-[Lys(Ac)]-N-[3Pal]-[Sarc]-NH2 [Peptide 117]	–	–	>24.0 h	0.02 nM	>24.0 h	>24.0 h	–	0.0281 nM
